What was measured:
[1] = system: muscarinic receptors; assay: Overall antimuscarinic activity (ileum contraction, α-amylase release, [^3 H]NMS binding)
[2] = system: butyrylcholinesterase; details: steady-state kinetics; cited from earlier work
[3] = target: T1, human serum butyrylcholinesterase (Homo sapiens, UniProt P06276); details: cited from earlier work
[4] = target: M2 receptor subtype (Cavia porcellus, UniProt H0W1Z3); assay: Inhibition of acetylcholine-induced contraction of guinea pig ileum; details: for pA2, Inhibition of Guinea Pig Ileum Contraction: acetylcholine-induced contraction, mean of four to five independent experiments ± standard errors of the mean
[5] = target: T1, human serum butyrylcholinesterase; assay: Inhibition (carbamylation) of human serum butyrylcholinesterase; details: for inhibition of human butyrylcholinesterase (in words): time-dependent manner
[6] = target: M2 receptor subtype (Rattus norvegicus, UniProt P08483); assay: Inhibition of carbachol-induced α-amylase release from pancreatic acini
[7] = system: M1 receptor subtype; assay: [^3 H]NMS binding to cerebral cortex
[8] = system: 7-(methylethoxyphosphinyloxy)-1-methylquinolinium iodide (MEPQ); assay: Guinea pig pretreatment followed by MEPQ (organophosphate) challenge; details: no other supportive drugs

The chains behind the UniProt entries cited, without tags or fusion partners. Residues count along the entry.
UniProt P06276, 29-602 limits assumed: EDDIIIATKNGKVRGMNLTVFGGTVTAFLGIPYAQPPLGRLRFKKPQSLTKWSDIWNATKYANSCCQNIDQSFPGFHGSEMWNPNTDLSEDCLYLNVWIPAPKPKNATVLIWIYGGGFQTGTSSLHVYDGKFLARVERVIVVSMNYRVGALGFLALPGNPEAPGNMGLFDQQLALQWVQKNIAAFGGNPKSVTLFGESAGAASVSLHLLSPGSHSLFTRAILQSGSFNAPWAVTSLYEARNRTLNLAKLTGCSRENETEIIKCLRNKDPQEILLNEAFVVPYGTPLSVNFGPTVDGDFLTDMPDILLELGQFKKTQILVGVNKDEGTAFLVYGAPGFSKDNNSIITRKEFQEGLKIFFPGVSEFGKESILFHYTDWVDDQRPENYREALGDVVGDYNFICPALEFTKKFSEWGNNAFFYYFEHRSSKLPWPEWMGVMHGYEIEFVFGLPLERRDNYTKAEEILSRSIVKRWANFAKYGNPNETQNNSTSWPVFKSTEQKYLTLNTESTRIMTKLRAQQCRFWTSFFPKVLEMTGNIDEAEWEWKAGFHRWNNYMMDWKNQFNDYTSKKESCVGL
UniProt H0W1Z3, 1-590: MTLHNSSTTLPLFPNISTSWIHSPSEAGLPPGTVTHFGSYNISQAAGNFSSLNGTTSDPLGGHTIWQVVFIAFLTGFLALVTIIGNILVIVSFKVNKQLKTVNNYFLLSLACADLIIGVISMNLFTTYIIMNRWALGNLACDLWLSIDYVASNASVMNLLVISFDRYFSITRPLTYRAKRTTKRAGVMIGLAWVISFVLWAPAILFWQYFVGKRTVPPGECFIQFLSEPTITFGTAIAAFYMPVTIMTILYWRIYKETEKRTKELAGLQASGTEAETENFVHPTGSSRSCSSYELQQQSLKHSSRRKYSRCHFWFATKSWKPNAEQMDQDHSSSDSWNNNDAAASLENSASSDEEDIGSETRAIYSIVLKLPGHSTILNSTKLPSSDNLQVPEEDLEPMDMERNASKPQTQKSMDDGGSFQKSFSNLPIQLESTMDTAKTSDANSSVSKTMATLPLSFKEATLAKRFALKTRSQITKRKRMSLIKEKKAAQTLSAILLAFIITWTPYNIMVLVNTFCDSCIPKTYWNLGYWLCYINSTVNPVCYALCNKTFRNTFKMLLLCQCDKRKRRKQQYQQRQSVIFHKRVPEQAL
UniProt P08483, whole entry, looked up: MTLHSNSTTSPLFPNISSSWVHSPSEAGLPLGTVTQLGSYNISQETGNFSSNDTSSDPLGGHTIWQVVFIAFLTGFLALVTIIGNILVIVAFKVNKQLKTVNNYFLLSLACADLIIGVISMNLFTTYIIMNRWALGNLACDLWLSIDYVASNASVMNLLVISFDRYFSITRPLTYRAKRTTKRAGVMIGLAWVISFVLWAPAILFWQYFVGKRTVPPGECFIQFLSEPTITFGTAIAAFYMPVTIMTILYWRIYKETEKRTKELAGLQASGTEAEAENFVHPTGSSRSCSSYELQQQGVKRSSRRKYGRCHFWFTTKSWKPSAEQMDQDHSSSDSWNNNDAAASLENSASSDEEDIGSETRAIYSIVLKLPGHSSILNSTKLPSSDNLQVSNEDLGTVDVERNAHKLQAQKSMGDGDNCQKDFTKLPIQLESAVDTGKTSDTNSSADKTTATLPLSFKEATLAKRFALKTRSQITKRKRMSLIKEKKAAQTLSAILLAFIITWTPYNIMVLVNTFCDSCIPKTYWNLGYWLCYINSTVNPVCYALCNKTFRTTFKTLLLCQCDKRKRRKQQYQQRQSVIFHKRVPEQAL

SMILES	pA2, Inhibition of Guinea Pig Ileum Contraction [4]	activity as carbamates (in words) [5]	potency compared with physostigmine and pyridostigmine [5]	inhibition of human butyrylcholinesterase (in words) [5]	muscarinic subtype specificity (in words) [1]	further results
CCN(CC)CCOC(=O)C(C)(c1ccc(O)cc1)c1ccc(O)cc1						Ki ([1]; read-out: antimuscarinic inhibition constants): 1000 nM
CCN(CC)CCOC(=O)C(C)(c1ccccc1)c1ccccc1						inhibition of butyrylcholinesterase over acetylcholinesterase [2]: preferentially inhibit butyrylcholinesterase over acetylcholinesterase; hydrolysis by human serum butyrylcholinesterase [3]: not subject to hydrolysis
CCN(CC)CCOC(=O)C(C)(c1ccc(O)cc1)c1ccc(OC(=O)N(C)C)cc1 (stereo not shown)	5.5 ± 0.2	potent ability to carbamylate butyrylcholinesterase	high potencies on the order of those of physostigmine and pyridostigmine	highly inhibitory	do not exhibit any muscarinic subtype specificity	antimuscarinic activities compared with dimethyl carbaphen [1]: one to two orders of magnitude lower; antimuscarinic activity (in words) [1]: poor antimuscarinic potency
CCN(CC)CCOC(=O)C(C)(c1ccccc1)c1ccc(OC(=O)N(C)C)cc1 (stereo not shown)	7.1 ± 0.1	potent ability to carbamylate butyrylcholinesterase	high potencies on the order of those of physostigmine and pyridostigmine	highly inhibitory	do not exhibit any muscarinic subtype specificity	inhibition of α-amylase release compared with monomethyl carbaphen (Compound 16) [6]: one order of magnitude lower; pA2 compared with monomethyl carbaphen (Compound 16) ([4]; inhibition of ileum contraction): about the same; inhibition of [^3 H]NMS binding compared with monomethyl carbaphen (Compound 16) [7]: one order of magnitude lower; anti-muscarinic profile compared with aprophen [1]: almost the same anti-muscarinic profile
CCN(CC)CCOC(=O)C(C)(c1ccccc1)c1ccc(OC(=O)NC)cc1 (stereo not shown)	7.3 ± 0.1	potent ability to carbamylate butyrylcholinesterase	high potencies on the order of those of physostigmine and pyridostigmine	highly inhibitory	more specificity for the pancreatic M2 receptor subtype over the M1 subtype of the cortex	protection against multiple LD50 doses of organophosphate [8]: protective characteristics against multiple LD50 doses of a potent organophosphate
CCN(CC)CCOC(=O)C(C)(c1ccccc1)c1ccc(O)cc1 (stereo not shown)						preference for the M2 subtype of the pancreas over the M subtype of the cerebral cortex ([1]; pancreas α-amylase vs cortex [^3 H]NMS): about 18 fold
CCN(CC)CCOC(=O)C(C)(c1ccc(OC(=O)N(C)C)cc1)c1ccc(OC(=O)N(C)C)cc1	not active	potent ability to carbamylate butyrylcholinesterase			do not exhibit any muscarinic subtype specificity	Ki, Inhibition of Pancreatic Acini α-amylase Release ([6]; 10^-5 M carbachol, mean of four to five independent experiments ± standard errors of the mean): not active; Ki, Inhibition of Cerebral cortex [^3 H]NMS binding ([7]; 2 nM [^3 H]NMS, mean of four to five independent experiments ± standard errors of the mean): marginal activity

Source: patent US4973734A, “Carbaphens: aprophen analogs that are binary antidotes for organophosphate poisoning” (dated 1990)
